Assay results: PubChem BioAssay (NCI)
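Where inhibition never reached the appropriate level, the endpoint shown equals the highest concentration tested. Otherwise, values were interpolated linearly from a five-concentration, 48-hour dose response in 96-well plates. The concentration for 50% growth inhibition is given as GI50.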

Experiments:
Assay in all cases: DTP human tumour cell line panel, 48 h; in the data active = GI50 below about 0.43 µM; inactive = the rest
786-0 renal = system: 786-0 renal
A498 renal = system: A498 renal
A549 NSCLC = system: A549 NSCLC
ACHN renal = system: ACHN renal
BT-549 breast = system: BT-549 breast
CAKI-1 renal = system: CAKI-1 renal
CCRF-CEM leukemia = system: CCRF-CEM leukemia
COLO 205 colon = system: COLO 205 colon
DU-145 prostate = system: DU-145 prostate
EKVX NSCLC = system: EKVX NSCLC
HCC-2998 colon = system: HCC-2998 colon
HCT-116 colon = system: HCT-116 colon
HCT-15 colon = system: HCT-15 colon
HL-60(TB) leukemia = system: HL-60(TB) leukemia
HOP-62 NSCLC = system: HOP-62 NSCLC
HOP-92 NSCLC = system: HOP-92 NSCLC
HS 578T breast = system: HS 578T breast
HT29 colon = system: HT29 colon
IGROV1 ovarian = system: IGROV1 ovarian
K-562 leukemia = system: K-562 leukemia
KM12 colon = system: KM12 colon
LOX IMVI melanoma = system: LOX IMVI melanoma
M14 melanoma = system: M14 melanoma
MALME-3M melanoma = system: MALME-3M melanoma
MCF7 breast = system: MCF7 breast
MDA-MB-231 breast = system: MDA-MB-231 breast
MDA-MB-435 = system: MDA-MB-435
MDA-N = system: MDA-N
MOLT-4 leukemia = system: MOLT-4 leukemia
NCI-H226 lung = system: NCI-H226 lung
NCI-H23 lung = system: NCI-H23 lung
NCI-H322M lung = system: NCI-H322M lung
NCI-H460 lung = system: NCI-H460 lung
NCI-H522 lung = system: NCI-H522 lung
NCI/ADR-RES ovarian = system: NCI/ADR-RES ovarian
OVCAR-3 ovarian = system: OVCAR-3 ovarian
OVCAR-4 ovarian = system: OVCAR-4 ovarian
OVCAR-5 ovarian = system: OVCAR-5 ovarian
OVCAR-8 ovarian = system: OVCAR-8 ovarian
PC-3 prostate = system: PC-3 prostate
RXF 393 renal = system: RXF 393 renal
SF-268 CNS = system: SF-268 CNS
SF-295 CNS = system: SF-295 CNS
SK-MEL-2 melanoma = system: SK-MEL-2 melanoma
SK-MEL-28 melanoma = system: SK-MEL-28 melanoma
SK-MEL-5 melanoma = system: SK-MEL-5 melanoma
SK-OV-3 ovarian = system: SK-OV-3 ovarian
SN12C renal = system: SN12C renal
SNB-19 CNS = system: SNB-19 CNS
SW-620 colon = system: SW-620 colon
T-47D breast = system: T-47D breast
TK-10 renal = system: TK-10 renal
U251 CNS = system: U251 CNS
UACC-257 melanoma = system: UACC-257 melanoma
UACC-62 melanoma = system: UACC-62 melanoma
UO-31 renal = system: UO-31 renal

Measured: GI50

CN(C)CCn1c(Cn2nnc3ccccc32)nc2cc(C(F)(F)F)ccc21
inactive: 786-0 renal 28.9 µM | A498 renal 24.5 µM | A549 NSCLC 83 µM | ACHN renal 50.4 µM | BT-549 breast 72.6 µM | CAKI-1 renal > 100 µM | CCRF-CEM leukemia 17.8 µM | COLO 205 colon 18.1 µM | DU-145 prostate > 100 µM | EKVX NSCLC 74.9 µM | HCC-2998 colon 15.9 µM | HCT-116 colon 36.2 µM | HCT-15 colon 45.6 µM | HL-60(TB) leukemia 19.9 µM | HOP-62 NSCLC > 100 µM | HOP-92 NSCLC 21.8 µM | HS 578T breast 62.1 µM | HT29 colon 36.7 µM | IGROV1 ovarian 41.6 µM | K-562 leukemia 25.3 µM | KM12 colon 57.7 µM | LOX IMVI melanoma 55.8 µM | M14 melanoma 17.6 µM | MALME-3M melanoma 17.1 µM | MCF7 breast 42.8 µM | MDA-MB-231 breast 49.2 µM | MDA-MB-435 = 46.2 µM | MDA-N 32 µM | MOLT-4 leukemia 20.5 µM | NCI-H226 lung 73.8 µM | NCI-H23 lung 61.4 µM | NCI-H322M lung > 100 µM | NCI-H460 lung 56.3 µM | NCI-H522 lung 30.6 µM | NCI/ADR-RES ovarian 51.8 µM | OVCAR-3 ovarian 76.6 µM | OVCAR-4 ovarian 34.8 µM | OVCAR-5 ovarian > 100 µM | OVCAR-8 ovarian 71.7 µM | PC-3 prostate 53.9 µM | RXF 393 renal 24.2 µM | SF-268 CNS 71.4 µM | SF-295 CNS 29.2 µM | SK-MEL-2 melanoma 58 µM | SK-MEL-28 melanoma 33.2 µM | SK-MEL-5 melanoma 36.2 µM | SK-OV-3 ovarian 25.8 µM | SN12C renal 34.8 µM | SNB-19 CNS > 100 µM | SW-620 colon > 100 µM | T-47D breast 21.8 µM | TK-10 renal 53.9 µM | U251 CNS 59.9 µM | UACC-257 melanoma 29.1 µM | UACC-62 melanoma 57.3 µM | UO-31 renal 45.5 µM
